Assay results reported in US20220017433A1 (UNIVERSITÄT ZÜRICH, priority 2018, published 2022).

Test: Water solubility of the chelating compounds
Format: physicochemical
Details: aqueous, high pH

solubility: sparingly soluble
Substance: Desferrioxamine-p-arylazide [DFO-ArN3]
